Assay results as given in patent publication US20240100072A1, “SUBCUTANEOUSLY ADMINISTERED TREATMENTS FOR ADVANCED PARKINSON'S DISEASE” (AbbVie Inc., priority 2021, published 2024).

Tested on: plasma proteins
Test: Distribution: erythrocyte/plasma partitioning, plasma protein binding, blood-brain barrier
Assay type: in vitro ADME
Description: The partitioning ratio for levodopa between erythrocytes and plasma is approximately 1. Levodopa has negligible binding to plasma proteins (<10%). Levodopa is transported into the brain by the carrier mechanism for large neutral amino acids.
Carbidopa is approximately 36% bound to plasma protein.
Both foslevodopa and foscarbidopa have low binding to plasma proteins (24%-26%).

binding to plasma proteins: approximately 36%
Compound: C[C@@](Cc1ccc(O)c(O)c1)(NN)C(=O)O [carbidopa]
